Experimental data published in article PMC5298233, “Substrate-analogous inhibitors exert antimalarial action by targeting the Plasmodium lactate transporter PfFNT at nanomolar scale” (PLoS Pathogens, 2017).

Molecular target: T1, rat MCT1 (Rattus norvegicus, UniProt P53987)
T1 sequence (P53987 1-494): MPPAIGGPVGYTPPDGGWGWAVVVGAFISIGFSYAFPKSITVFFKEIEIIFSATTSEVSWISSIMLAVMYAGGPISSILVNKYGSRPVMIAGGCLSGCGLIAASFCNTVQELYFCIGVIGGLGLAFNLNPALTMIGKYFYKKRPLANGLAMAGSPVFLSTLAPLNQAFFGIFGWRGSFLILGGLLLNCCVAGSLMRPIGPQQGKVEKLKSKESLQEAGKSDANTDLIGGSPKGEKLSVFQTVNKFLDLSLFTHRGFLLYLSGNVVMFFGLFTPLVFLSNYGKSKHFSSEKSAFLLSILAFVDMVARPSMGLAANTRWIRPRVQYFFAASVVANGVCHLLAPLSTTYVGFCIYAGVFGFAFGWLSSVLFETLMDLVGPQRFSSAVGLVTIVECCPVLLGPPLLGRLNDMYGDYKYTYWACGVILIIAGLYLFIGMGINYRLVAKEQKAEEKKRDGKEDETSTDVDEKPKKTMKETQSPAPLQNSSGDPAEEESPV
Assay: L-lactate transport inhibition of MCT1 expressed in yeast
Type: cell-based

Which “lower efficiency on MCT1 than on PfFNT” value does the source give for `COc1ccc2c(c1)OC(O)(C(F)(F)C(F)(F)F)CC2=O` (stereo not shown) [MMV007839] here?
Its value is 300 times.
